Source: PubChem BioAssay AID485290 (National Center for Advancing Translational Sciences (NCATS), 2010)
Values joined by “and” are separate entries in the source; they are usually repeats but may differ in a detail not shown here. Equal entries are not always repeated. Only a part is listed here, and it is no random draw. Active and inactive are the calls of the source. Calls come from the whole dose curve; as a rule, active = well fitted inhibition curve with a large enough effect; inconclusive = small, poorly fitted or top-dose-only effect; inactive = no such curve, though single readings can be large or run the other way.

Chains of the proteins cited; added tags and fusions are not shown.
UniProt Q9NUW8, whole entry, looked up: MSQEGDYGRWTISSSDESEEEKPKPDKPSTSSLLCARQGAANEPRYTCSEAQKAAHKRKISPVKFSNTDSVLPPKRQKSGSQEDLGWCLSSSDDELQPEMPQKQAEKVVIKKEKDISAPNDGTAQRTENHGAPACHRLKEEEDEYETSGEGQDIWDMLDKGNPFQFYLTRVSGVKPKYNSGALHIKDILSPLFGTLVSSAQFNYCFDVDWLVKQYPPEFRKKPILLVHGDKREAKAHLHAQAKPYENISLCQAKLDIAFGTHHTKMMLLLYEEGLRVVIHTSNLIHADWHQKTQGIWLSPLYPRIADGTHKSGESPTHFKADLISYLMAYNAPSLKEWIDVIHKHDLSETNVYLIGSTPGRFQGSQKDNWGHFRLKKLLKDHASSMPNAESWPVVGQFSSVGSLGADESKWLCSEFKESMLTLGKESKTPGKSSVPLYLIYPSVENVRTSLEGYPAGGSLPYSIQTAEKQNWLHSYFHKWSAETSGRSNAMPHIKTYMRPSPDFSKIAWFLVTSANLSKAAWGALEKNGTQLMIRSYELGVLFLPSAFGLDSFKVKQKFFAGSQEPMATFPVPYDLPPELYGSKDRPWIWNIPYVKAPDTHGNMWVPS

Molecular target: Tyrosyl-DNA phosphodiesterase 1 (Homo sapiens) (UniProt Q9NUW8)
Assay: qHTS Assay for Inhibitors of Tyrosyl-DNA Phosphodiesterase (TDP1); note: nearly all actives have a fitted effect of over 40% in size
Settings: recombinant TDP1, AlphaScreen DNA substrate cleavage
Source text: NIH Molecular Libraries Probe Production Network [MLPCN]
NIH Chemical Genomics Center [NCGC]
Assay Provider: Yves Pommier and Christophe Marchand, National Cancer Institute
Assay Title: qHTS Assay for Inhibitors of Tyrosyl-DNA Phosphodiesterase (TDP1); note: nearly all actives have a fitted effect of over 40% in size
Human tyrosyl-DNA phosphodiesterase I (Tdp1) is a rational anticancer target because this enzyme is involved in the repair of DNA lesions created by the trapping of human DNA topoisomerase I (Top1) following treatment by anticancer agents such as camptothecins. Recombinant Tdp1 was expressed and purified from E. coli in the laboratory (Anthony et al, Nucleic Acids Research, 2007, Vol. 35, 4474-4484). A Tdp1 DNA substrate bearing a 5' biotin and a 3' phospho-tyrosine was obtained by custom synthesis. This oligonucleotidic DNA substrate was subsequently coupled to a fluorescein isothiocyanate (FITC) group via the free amino group present on the phospho-tyrosine. Tdp1 was screened against the NCGC small molecule library using the AlphaScreen (AS) detection method in which a streptavidin donor AS bead is bound at the 5' end and an anti-FITC AS acceptor bead is bound at the 3' end of the DNA oligonucleotidic substrate. […]
3 ul of Tdp1 enzyme is dispensed to 1536-well Kalypsys black solid bottom plates. […] The detection is then performed on a PerkinElmer Envision reader.
Potency is the fitted concentration of half-maximal effect.

| SMILES | Potency |
| --- | --- |
| CC(CCC(C)C(C)(C)C)[C@@H]1CC[C@H]2C3C[C@H](OS(O)(=S)=S)[C@H]4C[C@H](OS(O)(=S)=S)[C@@H](OS(O)(=S)=S)C[C@]4(C)[C@H]3CC[C@]12C (some centres not stated) (tested in a mixture with another compound) | active: 39.8 µM and active: 20 µM |
| COc1c(N2CCNC(C)C2)c(F)cc2c(=O)c(C(=O)O)cn(C3CC3)c12 (configuration not stated) | active: 28.2 µM |
